Assay: Flow function coefficient (FFC), FT4 shear test at 3 kPa
Format: physicochemical
Conditions: Example 20, APIs alone
Description: Unless otherwise noted, bulk density and flowability, i.e., flow function coefficient (FFC), as provided herein is obtained using a Freeman FT4 powder tester (Freeman Technologies Ltd., Worcestershire, UK), where the bulk density and the flow function coefficient (FFC) were defined as the ratio of consolidation stress to the unconfined yield stress. The FFC was evaluated from a shear test under the consolidation pressure of 3 kPa. Detailed procedures for both may be found in Freeman et al., Measuring the flow properties of consolidated, conditioned and aerated powders—A comparative study using a powder rheometer and a rotational shear cell. Powder Technology 174, 25-33 (2007) and Huang et al., Flow and bulk density enhancements of pharmaceutical powders using a conical screen mill: A continuous dry coating device. Chemical Engineering Science 125, 209-224 (2015).
Though FFC is the flowability measure used herein, one of ordinary skill in the art would recognize that other flow indices can be used, such as angle of repose, Carr index, Hausner ratio, flow through orifice testing device, and others. […] A classification of powder flow behavior based on FFC is defined by Schulze, D., Powders and Bulk Solids. Springer (2008) according to the FFC value: “FFC<1—not flowing, 1<FFC<2—very cohesive, 2<FFC<4—cohesive, 4<FFC<10—easy flowing, and FCC>10—free-flowing”.

An FFC of 1.93 was found for `CC(=O)Nc1ccc(O)cc1` [Micronized APAP, micronized acetaminophen] in this work.

Source: US10751288B2, “Dry processed surface coated engineering excipients” (New Jersey Institute of Technology, priority 2016, dated 2020)
